Where “and” joins values, the source holds several entries; their conditions need not be identical. Equal values may be shown once. The list shows a part of the results, in another mix than the full data. Calls of active or inactive are those of the source. The call rests on the fitted dose curve; in most records, active means well fitted inhibition curve with a large enough effect; inconclusive means small, poorly fitted or top-dose-only effect; inactive means no such curve, though single readings can be large or run the other way.
target: Tyrosyl-DNA phosphodiesterase 1 (Homo sapiens) (UniProt Q9NUW8); experiment: qHTS Assay for Inhibitors of Tyrosyl-DNA Phosphodiesterase (TDP1); conditions: recombinant TDP1, AlphaScreen DNA substrate cleavage; further: nearly all actives have a fitted effect of over 40% in size
Text: NIH Molecular Libraries Probe Production Network [MLPCN]
NIH Chemical Genomics Center [NCGC]
Assay Provider: Yves Pommier and Christophe Marchand, National Cancer Institute
Assay Title: qHTS Assay for Inhibitors of Tyrosyl-DNA Phosphodiesterase (TDP1); further: nearly all actives have a fitted effect of over 40% in size
Human tyrosyl-DNA phosphodiesterase I (Tdp1) is a rational anticancer target because this enzyme is involved in the repair of DNA lesions created by the trapping of human DNA topoisomerase I (Top1) following treatment by anticancer agents such as camptothecins. Recombinant Tdp1 was expressed and purified from E. coli in the laboratory (Anthony et al, Nucleic Acids Research, 2007, Vol. 35, 4474-4484). A Tdp1 DNA substrate bearing a 5' biotin and a 3' phospho-tyrosine was obtained by custom synthesis. This oligonucleotidic DNA substrate was subsequently coupled to a fluorescein isothiocyanate (FITC) group via the free amino group present on the phospho-tyrosine. Tdp1 was screened against the NCGC small molecule library using the AlphaScreen (AS) detection method in which a streptavidin donor AS bead is bound at the 5' end and an anti-FITC AS acceptor bead is bound at the 3' end of the DNA oligonucleotidic substrate. […]
3 ul of Tdp1 enzyme is dispensed to 1536-well Kalypsys black solid bottom plates. […] The detection is then performed on a PerkinElmer Envision reader.
Potency means the concentration at half of the fitted maximal effect.

The chains behind the UniProt entries cited, without tags or fusion partners.
UniProt Q9NUW8, whole entry, looked up: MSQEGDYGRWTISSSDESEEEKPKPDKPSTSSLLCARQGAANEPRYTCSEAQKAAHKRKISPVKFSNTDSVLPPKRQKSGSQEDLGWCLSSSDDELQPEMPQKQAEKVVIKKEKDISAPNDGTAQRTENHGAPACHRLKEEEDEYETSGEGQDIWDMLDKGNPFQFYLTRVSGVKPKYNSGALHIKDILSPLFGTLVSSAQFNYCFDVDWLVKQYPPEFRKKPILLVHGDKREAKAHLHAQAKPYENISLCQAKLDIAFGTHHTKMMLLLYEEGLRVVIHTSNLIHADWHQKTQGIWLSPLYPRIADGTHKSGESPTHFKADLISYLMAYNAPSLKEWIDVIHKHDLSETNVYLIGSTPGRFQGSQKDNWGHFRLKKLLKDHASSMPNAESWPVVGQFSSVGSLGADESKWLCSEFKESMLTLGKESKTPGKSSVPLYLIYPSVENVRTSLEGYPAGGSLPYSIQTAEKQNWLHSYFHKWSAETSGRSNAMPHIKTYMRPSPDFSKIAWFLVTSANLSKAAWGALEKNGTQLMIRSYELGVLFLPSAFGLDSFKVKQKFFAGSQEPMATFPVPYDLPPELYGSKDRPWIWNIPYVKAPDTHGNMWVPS

Compound | Potency
O=C(O)C1=CC(=C(c2ccc(O)c(C(=O)O)c2)c2ccc(O)c(C(=O)O)c2)C=CC1=O | active: 31.6 nM and active: 17.8 nM
